Target: Tyrosine-protein kinase JAK1 (Homo sapiens, UniProt P23458)
Test: Inhibition of human JAK1 kinase domain using biotin-Lyn-substrate-2 as substrate incubated for 1 hr by ELISA method

The chains behind the UniProt entries cited, without tags or fusion partners. Where a name states a change or a piece, a line headed by the entry shows the natural chain unless it says otherwise.
UniProt P23458: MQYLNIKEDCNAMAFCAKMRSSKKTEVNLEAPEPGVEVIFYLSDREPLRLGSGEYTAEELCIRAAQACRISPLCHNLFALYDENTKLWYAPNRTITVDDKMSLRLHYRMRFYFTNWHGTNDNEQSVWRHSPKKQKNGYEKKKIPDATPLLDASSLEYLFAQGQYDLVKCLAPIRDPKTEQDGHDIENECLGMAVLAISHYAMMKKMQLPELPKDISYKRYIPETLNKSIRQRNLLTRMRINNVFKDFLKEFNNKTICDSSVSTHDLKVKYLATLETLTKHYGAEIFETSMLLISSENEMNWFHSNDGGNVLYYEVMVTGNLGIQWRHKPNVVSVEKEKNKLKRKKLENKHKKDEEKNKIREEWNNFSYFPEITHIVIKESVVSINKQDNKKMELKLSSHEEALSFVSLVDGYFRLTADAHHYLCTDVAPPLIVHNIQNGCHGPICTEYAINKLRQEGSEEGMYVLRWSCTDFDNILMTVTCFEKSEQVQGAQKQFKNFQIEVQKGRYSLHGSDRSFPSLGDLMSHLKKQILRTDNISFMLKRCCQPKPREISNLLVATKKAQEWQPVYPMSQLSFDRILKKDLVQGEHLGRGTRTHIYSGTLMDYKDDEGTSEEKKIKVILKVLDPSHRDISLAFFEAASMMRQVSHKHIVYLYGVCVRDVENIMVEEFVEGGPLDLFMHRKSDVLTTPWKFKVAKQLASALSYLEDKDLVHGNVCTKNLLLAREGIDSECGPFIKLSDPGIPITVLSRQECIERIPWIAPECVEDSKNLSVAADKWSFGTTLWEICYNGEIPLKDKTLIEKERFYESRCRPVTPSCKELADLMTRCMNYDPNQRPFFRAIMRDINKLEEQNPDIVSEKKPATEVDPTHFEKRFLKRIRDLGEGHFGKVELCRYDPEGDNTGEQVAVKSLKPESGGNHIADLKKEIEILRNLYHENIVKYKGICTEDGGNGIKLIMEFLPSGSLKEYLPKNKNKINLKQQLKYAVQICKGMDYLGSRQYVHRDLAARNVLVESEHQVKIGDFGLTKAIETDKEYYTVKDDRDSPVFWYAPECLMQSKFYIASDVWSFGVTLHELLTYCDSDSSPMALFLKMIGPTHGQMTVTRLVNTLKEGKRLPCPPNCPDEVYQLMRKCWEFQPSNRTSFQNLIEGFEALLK

- IC50: 84 nM
Structure (SMILES): NC(=O)c1cnc2[nH]ccc2c1NC1CCN(Cc2ccccc2)CC1

— ChEMBL document CHEMBL3593212, “Synthesis and evaluation of novel 1H-pyrrolo[2,3-b]pyridine-5-carboxamide derivatives as potent and orally efficacious immunomodulators targeting JAK3” (Bioorg Med Chem, 2015)
